In ChEMBL document CHEMBL1134564, “Development of serine protease inhibitors displaying a multicentered short (<2.3 A) hydrogen bond binding mode: inhibitors of urokinase-type plasminogen activator and factor Xa” (J Med Chem, 2001):
Each block holds one compound with its values, some of them ahead of it.

Amino acid sequences for entries named in this document (tags omitted). Residues count along the entry.
UniProt P00747, 97-580 limits assumed: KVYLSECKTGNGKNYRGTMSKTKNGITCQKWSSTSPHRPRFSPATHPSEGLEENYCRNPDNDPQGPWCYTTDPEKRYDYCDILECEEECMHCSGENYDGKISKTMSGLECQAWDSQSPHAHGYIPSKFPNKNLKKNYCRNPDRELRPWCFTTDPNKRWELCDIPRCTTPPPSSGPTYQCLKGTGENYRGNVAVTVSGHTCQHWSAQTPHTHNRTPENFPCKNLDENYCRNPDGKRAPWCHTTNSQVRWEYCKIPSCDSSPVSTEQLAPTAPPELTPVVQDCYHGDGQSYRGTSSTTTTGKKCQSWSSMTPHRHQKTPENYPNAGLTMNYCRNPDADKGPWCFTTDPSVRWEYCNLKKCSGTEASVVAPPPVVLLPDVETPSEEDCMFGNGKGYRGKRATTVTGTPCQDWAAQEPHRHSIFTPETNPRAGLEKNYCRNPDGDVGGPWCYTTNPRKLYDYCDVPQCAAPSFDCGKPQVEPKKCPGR
UniProt P00747, 581-810 limits assumed: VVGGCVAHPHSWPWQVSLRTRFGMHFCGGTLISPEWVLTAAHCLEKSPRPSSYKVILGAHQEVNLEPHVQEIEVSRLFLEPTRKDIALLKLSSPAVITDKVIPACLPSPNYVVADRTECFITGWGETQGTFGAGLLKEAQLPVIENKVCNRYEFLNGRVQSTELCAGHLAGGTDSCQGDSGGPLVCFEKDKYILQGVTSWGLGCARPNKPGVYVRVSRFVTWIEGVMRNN
UniProt P07477, whole entry: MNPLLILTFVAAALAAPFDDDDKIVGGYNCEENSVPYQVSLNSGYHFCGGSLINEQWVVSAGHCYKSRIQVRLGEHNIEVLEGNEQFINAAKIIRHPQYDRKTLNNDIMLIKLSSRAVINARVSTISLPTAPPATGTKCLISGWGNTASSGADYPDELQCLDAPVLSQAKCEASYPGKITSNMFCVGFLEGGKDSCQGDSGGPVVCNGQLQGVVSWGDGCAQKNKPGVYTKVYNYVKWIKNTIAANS

Assays:
[1] = biological target: T1, Urokinase-type plasminogen activator (Homo sapiens, UniProt P00749); assay: ComInhibition of Human Serine Protease Urokinase Plasminogen Activator (u-PA).
[2] = biological target: Plasminogen (Homo sapiens, UniProt P00747); assay: Inhibition of Human Serine Protease Plasmin.
[3] = biological target: T1, Urokinase-type plasminogen activator
[4] = biological target: Serine protease 1 (Homo sapiens, UniProt P07477); assay: Inhibition of Human Serine Protease Trypsin.

SMILES: N=C(N)c1ccc2oc(-c3cccc(-c4ccccc4)c3O)cc2c1
Ki [1]: 550 nM | Ki [2]: 5500 nM

Ki [3]: 400 nM
SMILES: N=C(N)c1ccc2nc(-c3cccc(-c4ccccc4)c3O)[nH]c2c1

SMILES: N=C(N)c1ccc2[nH]c(-c3cccc(Br)c3O)nc2c1
Ki [1]: 250 nM

SMILES: N=C(N)c1ccc2nc(-c3cc(F)ccc3O)[nH]c2c1
Ki [4]: 10000 nM
